Where “and” joins values, the source holds several entries; their conditions need not be identical. Identical values can stand only once.
Assay: Concentration of vancomycin in the lungs of mice after inhalation therapy (Example 8)
Conditions: 6 mg/kg inhaled, 4 days after inhalation therapy; listed as Soluble Vancomycin
Description: There were 5 groups and each group had 12 mice. […] Mice in group 5 received sterile normal saline (0.9% NaCl) by inhalation.

CN[C@H](CC(C)C)C(=O)N[C@H]1C(=O)N[C@@H](CC(N)=O)C(=O)N[C@H]2C(=O)N[C@H]3C(=O)N[C@H](C(=O)N[C@H](C(=O)O)c4cc(O)cc(O)c4-c4cc3ccc4O)[C@H](O)c3ccc(c(Cl)c3)Oc3cc2cc(c3O[C@@H]2O[C@H](CO)[C@@H](O)[C@H](O)[C@H]2O[C@H]2C[C@](C)(N)[C@H](O)[C@H](C)O2)Oc2ccc(cc2Cl)[C@H]1O [Vancomycin, vancomycin]
Vancomycin (μg/g), individual mice: 54.9 µg/g | Vancomycin (μg/lung), individual mice: 10.3 μg/lung and 11.2 μg/lung

Source: US20090104257A1 (priority 2007, published 2009)
